This is an account of results in US8822500B2 (dated 2014).

Amino acid sequences for entries named in this document (tags omitted). Residues count along the entry.
UniProt P04629, 33-796: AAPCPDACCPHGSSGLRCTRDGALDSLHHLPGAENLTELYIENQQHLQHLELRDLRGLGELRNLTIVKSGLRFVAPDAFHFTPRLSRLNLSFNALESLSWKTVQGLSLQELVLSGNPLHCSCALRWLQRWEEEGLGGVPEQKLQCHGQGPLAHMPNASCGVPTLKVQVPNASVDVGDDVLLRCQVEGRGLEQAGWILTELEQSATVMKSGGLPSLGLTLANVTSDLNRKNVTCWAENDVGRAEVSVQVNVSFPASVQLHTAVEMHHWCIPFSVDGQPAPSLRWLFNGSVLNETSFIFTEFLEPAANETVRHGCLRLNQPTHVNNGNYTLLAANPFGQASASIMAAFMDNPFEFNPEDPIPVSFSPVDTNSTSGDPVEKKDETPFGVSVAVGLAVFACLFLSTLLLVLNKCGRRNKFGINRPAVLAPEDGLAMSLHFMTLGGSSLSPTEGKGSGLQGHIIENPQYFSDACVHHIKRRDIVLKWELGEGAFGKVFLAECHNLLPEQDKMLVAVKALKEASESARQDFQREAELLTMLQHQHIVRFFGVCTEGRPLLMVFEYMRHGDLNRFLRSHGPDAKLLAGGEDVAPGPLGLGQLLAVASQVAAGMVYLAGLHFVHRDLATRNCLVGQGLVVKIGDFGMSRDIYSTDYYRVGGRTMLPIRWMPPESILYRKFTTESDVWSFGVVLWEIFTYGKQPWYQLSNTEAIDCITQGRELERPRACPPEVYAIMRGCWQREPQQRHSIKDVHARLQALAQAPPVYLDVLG

In this assay the target is TrkA (Homo sapiens (Human), UniProt P04629). The assay is described as follows: In vitro kinase activity assay (LANCE TR-FRET).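 Also: kinase reaction with poly-GT peptide substrate and ATP, phosphorylated product quantified by time-resolved FRET, eleven-point dose curves from 10^−11 to 10^−5 M in triplicate, DMSO as negative control.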 Type of assay: biochemical. Background: TR-FRET usually uses a lanthanide donor and a delayed reading to cut background.

Where two headings read alike, the source gives them in different places.

The term IC50 denotes the midpoint of a concentration-inhibition curve. “(S)-6-(6-Fluoropyridin-3-yl)-2-(2-oxo-4-((1-(2,3,5,6-tetrafluorophenyl)propan-2-yl)amino)-1,2-dihydropyridin-3-yl)imidazo[4,5-f]isoindole-5,7(1H,6H)-dione [Compound 15]”: the IC50 by setting is: (read-out: TrKA IC50) more than 10000 nM; (read-out: TrkA (nM) IC50) more than 10000 nM.
